Experimental data as given in PMC9414684, “Quantitative Structure–Neurotoxicity Assessment and In Vitro Evaluation of Neuroprotective and MAO-B Inhibitory Activities of Series N′-substituted 3-(1,3,7-trimethyl-xanthin-8-ylthio)propanehydrazides” (Molecules, 2022).

Columns and labels:
[1] = tested on: isolated rat mitochondria; test: t-BuOOH-induced oxidative stress model, MDA production; conditions: self-administered t-BuOOH (75 µmol), compared to controls (untreated mitochondria)
[2] = tested on: isolated rat mitochondria; test: t-BuOOH-induced oxidative stress model, GSH level; conditions: self-administered t-BuOOH (75 µmol), compared to controls (untreated mitochondria)

CC(C)(C)OO
increase of MDA production by the toxic agent [1]: 55% | decrease of GSH by the toxic agent [2]: 52%
